A549 viability: counter-screen for Nrf2 inhibitors: cytotoxicity in A549 cells. A549 ARE-Fluc cells, CellTiter-Fluor viability, 18-24 h. Potency, µM (highest dose often 46 µM), inactives show at the top dose activity change, negative = cytotoxicity, hits mostly inhibitors. 0.16% of 390,000 active. AID 504648; also: potency is read from the fitted curve at half-maximal effect; % is scaled to controls: 0 for no effect and ±100 for the full control effect
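Cytotoxicity counterscreen: CellTiter-Fluor fluorescence was measured in A549 ARE_Fluc cells after 18-24 h of compound exposure in a concentration series. The subsequent BugLite luminescent read reports ARE-luciferase activity.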
IL-2 act: IL-2 activation | 0.065% of 360,000 active | activation, % (series mostly up to about 46 µM) | AID 652025 | IL-2 activation reporter assay, cell-based qHTS; stimulated with anti-CD3/CD4/CD28 beads; in transgenic mouse T cells; in the data active = activation above about 50%; inconclusive = mostly about 30% to 49%; also: 0% is about no effect
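Screening format: compound pinned onto unstimulated transgenic mouse T cells, 60 min incubation, then anti-CD3/anti-CD4/anti-CD28 bead stimulation for 18 hours at 37 degrees C, followed by EGFP and DsRed detection.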
miR-21 reporter: miR-21 reporter, rising signal; Potency, µM (titrated, usually from 38.3 µM), without a hit: at the highest dose reporter change, positive = more light; AID 2288; 340,000 tested, under 10 active; HeLa miR-21 FLuc reporter, luciferase, 48 h; active = well fitted rising curve with a large enough effect; inconclusive = small, poorly fitted or top-dose-only effect; inactive = no such curve, though single readings can be large or run the other way;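 note: % of control where 0% means no effect; miR-21 action dims this reporter so a rising signal means less miR-21 action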
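HeLa miR-21-FLuc reporter line, endogenous miR-21; 2000 cells/well in DMEM/10% FBS; compound titration up to ~40uM final, 48 h, 37 degree Celsius; luciferase detection reagent, 15 min lysis, CCD luminescence.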
Nrf2 block: blocks Nrf2 signaling. A549 ARE-Fluc reporter, luciferase luminescence, 18-24 h. Potency, µM (doses to about 46 µM), inactives show top-dose activity change, negative = inhibition, most hits filed as inhibitors. 2.1% of 360,000 active. AID 504444; also: potency is read from the fitted curve at half-maximal effect; % is scaled to controls: 0 for no effect and ±100 for the full control effect; nearly all actives have a fitted effect of over 60% in size
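Nrf2 activity is the BugLite luminescence, read 15 min after reagent at room temperature, following CellTiter-Fluor cytotoxicity readout (30 min, 37C). Compound titrations were applied for 18-24 h to 5000 A549 ARE_Fluc cells/well in 5% FBS OPTI-MEM.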
ClpP mod: qHTS Assay for Activators of ClpP; ATP-dependent Clp protease proteolytic subunit (Bacillus subtilis (strain 168)), P80244; purified B. subtilis ClpP, FRET peptide cleavage, 20 min; Potency, µM (titrated, usually from 57.5 µM), for the others: at the highest dose activity change, negative = active; 1.9% of 340,000 active; AID 651965, 2013; active = well fitted falling curve with a large enough effect; inconclusive = small, poorly fitted or top-dose-only effect; inactive = no such curve, though single readings can be large or run the other way; also: potency is read from the fitted curve at half-maximal effect; the source files actives as falling curves though it sought activators and does not explain the sign; nearly all actives have a fitted effect of over 65% in size
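Purified B. subtilis ClpP, 10 microg/mL final in Tris/HCl pH8 with KCl, BSA, glycerol and Tween-20, cleaved an Abz/nitrotyrosine-quenched decapeptide. Fluorescence (ex 320, em 430) was read at 0 and 20 min at room temperature. Delta was normalized to 5.8 microM ADEP and DMSO/no-enzyme controls.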
Nrf2 activator: Nrf2 pathway activation. AREc32 ARE-luciferase reporter (MCF7-derived line), luminescence, 24 h. Potency, µM (titrated, usually from 46.1 µM), without a hit: at the highest dose activation, most hits filed as activators. 0.31% of 410,000 active. AID 624171; also: potency is read from the fitted curve at half-maximal effect; % of control where 0% means no effect; nearly all actives have a fitted effect of over 65% in size
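Luminescent ARE reporter assay in AREc32_Fluc cells: overnight plating at 37 deg C, 24 hr compound incubation, Steady-Glo added, 30 min RT before reading.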
Starred values were filed as active, the others as inactive; u = inconclusive; x = not tested or not shown; [ ] = dose if it differs, or a comment. Most compounds without a hit are left out; they make up all but 3.7% or so of the library. Unless noted, calls follow the shape of the dose curve; as a rule, active = well fitted curve in the direction sought with a large enough effect; inconclusive = small, poorly fitted or top-dose-only effect, or another doubt; inactive = no such curve, though single readings can be large; an effect the other way counts as inactive or inconclusive.

(1) O=S(=O)(Nc1ccc(F)c(C(F)(F)F)c1)c1ccc(N2CCCCS2(=O)=O)cc1
(2) Cc1cc(C)cc(OCC(=O)N(Cc2ccco2)Cc2ccccc2Cl)c1
(3) CSCCC(NS(=O)(=O)c1ccc2c(c1)oc(=O)n2C)C(=O)NCc1ccc(Cl)cc1 (stereo not drawn)
(4) Cc1ccc(NC(=O)c2ccc(Cl)c(S(=O)(=O)N3CCCCC3)c2)nc1
(5) Cc1cc(NC(=O)c2ccc(Cl)c(S(=O)(=O)N3CCCCC3)c2)no1
(6) Cc1ccnc(NC(=O)c2cccc(S(=O)(=O)N3CCN(c4ccccc4)CC3)c2)c1
(7) Cc1ccc(NC(=O)c2cccc(S(=O)(=O)N3CCN(c4ccccc4)CC3)c2)nc1
(8) O=C(CN1C(=O)CC(c2ccccc2)Sc2ccccc21)Nc1cccc(Cl)c1 (stereo not drawn)

Assay by compound | 1 | 2 | 3 | 4 | 5 | 6 | 7 | 8
A549 viability | -7.3% | 2.1% | 5.1% | -6.8% | -16.4% | -1.3% | -11.2% | -19.0%
IL-2 act | x | x | x | -0.2 | -2.6 | -0.6 | -1.1 | x
miR-21 reporter | u | 10.5% | -2.8% | x | -0.1% | x | x | 16.0%
Nrf2 block | x | u | x | 20.6µM* | 23.1µM* | u | 14.6µM* | u
ClpP mod | -1.8% | -2.5% | 1.1% | -2.0% | 1.7% | x | x | -22.2%
Nrf2 activator | -0.6% | 8.4% | -1.3% | -1.1% | -0.2% | -0.7% | 2.8% | 0.0%

(9) O=C1C2C3C=CC(C3)C2C(=O)N1c1ccncc1 (stereo not drawn)
(10) O=C1C2C3C=CC(C3)C2C(=O)N1c1ccc(-c2nc3ccccc3o2)cc1 (stereo not drawn)
(11) Cc1ccc(Cn2c(C(=O)O)c(CNCc3cccs3)c3ccc(C)cc32)cc1
(12) COc1cccc(C(=O)Nc2cc3c4c(c2)CC(=O)N4CCC3)c1
(13) COc1cc(C(=O)Nc2cc3c4c(c2)CC(=O)N4CCC3)cc(OC)c1OC
(14) Nc1cccc(/C=C2\C=Cc3ccccc32)c1
(15) O=C(COCc1cc(-c2ccco2)on1)Nc1cccc(O)c1
(16) COC(=O)C1=C(C)NC2=C(C(=O)CC(C)(C)C2)C1c1cn(Cc2ccc(Br)cc2)nc1-c1ccccc1 (stereo not drawn)

Assay by compound | 9 | 10 | 11 | 12 | 13 | 14 | 15 | 16
A549 viability | -8.8% | -1.9% | u | -0.2% | 0.0% | x | -0.7% | -22.0%
IL-2 act | -2.3 | -0.1 | x | -2.9 | -1.9 | x | x | -3.2
miR-21 reporter | 0.8% | -46.0% | 8.0% | x | x | x | -15.8% | 15.7%
Nrf2 block | -16.1% | u | 7.8% | -2.6% | -25.8% | x | u | 12.6µM*
ClpP mod | u | 6.31µM* | u | 1.0% | 15.8µM* | -9.8% | 0.0% | 31.6µM*
Nrf2 activator | 0.4% | 4.3% | -0.5% | 1.9% | 1.1% | x | 22.2% | -0.7%

(17) COC(=O)C1=C(C)NC2=C(C(=O)CCC2)C1c1cn(Cc2ccc(Br)cc2)nc1-c1ccccc1 (stereo not drawn)
(18) Cc1cc(C)nc(N2CCC(C(=O)NCc3ccco3)CC2)n1
(19) COC(=O)CNC(=O)C1CCN(c2nc(C)cc(C)n2)CC1
(20) COc1nc(OC)nc(N2CCC(C(=O)NCc3ccco3)CC2)n1
(21) COCCCNC(=O)C1CCN(c2nc(C)cc(C)n2)CC1
(22) Cc1cc(C)nc(N2CCC(C(=O)NC3CCCCCC3)CC2)n1
(23) Cc1cc(C)nc(N2CCCC(C(=O)NC3CCCC3)C2)n1 (stereo not drawn)
(24) O=C(Cc1ccc(Cl)cc1)NO

Assay by compound | 17 | 18 | 19 | 20 | 21 | 22 | 23 | 24
A549 viability | -13.6% | -7.5% | 0.5% | -6.0% | 1.3% | 2.3% | -1.5%[1.84 µM] | x
IL-2 act | -4.0 | 0.5 | 0.4 | -1.9 | -2.7 | -1.2 | 2.3 | x
miR-21 reporter | 7.6% | -1.5% | -5.2% | -3.5% | 1.0% | x | -3.2% | x
Nrf2 block | u | 4.9% | x | 10.0% | 0.0% | x | 10.5% | x
ClpP mod | u | 15.8µM* | 31.6µM* | 0.3% | u | -1.3% | 22.4µM* | -1.5%
Nrf2 activator | 0.0% | 0.0% | -0.5% | 0.1% | 0.0% | -0.6% | -1.0% | x

The last 3 entries of the section before lead into the next:
(22) Cc1cc(C)nc(N2CCC(C(=O)NC3CCCCCC3)CC2)n1
(23) Cc1cc(C)nc(N2CCCC(C(=O)NC3CCCC3)C2)n1 (stereo not drawn)
(24) O=C(Cc1ccc(Cl)cc1)NO
(25) N#Cc1c(N)nc(SCc2ccncc2)c(C#N)c1-c1cccs1
(26) Cc1ccc(C)c(S(=O)(=O)N2CCCC2CNC(=O)c2ccc([N+](=O)[O-])cc2)c1 (stereo not drawn)
(27) Cc1ccc(S(=O)(=O)N2CCCC2CNC(=O)C(=O)Nc2ccc(F)cc2)cc1 (stereo not drawn)
(28) CC(C)(C)c1ccc(C(=O)NCC2CCCN2S(=O)(=O)c2ccccc2)cc1 (stereo not drawn)
(29) CCOC(=O)c1sc2nc(CC(=O)OC)nc(NCCN(CC)CC)c2c1C
(30) CCOC(=O)c1sc2nc(CC(=O)OC)nc(NCc3ccc(Cl)cc3)c2c1C
(31) O=C(OCC#CCSc1nnc(-c2cccc3ccccc23)o1)c1ccc(F)cc1F
(32) COc1ccc(-c2cccc(NS(=O)(=O)c3ccc(NC(C)=O)cc3)c2)nn1

Assay by compound | 22 | 23 | 24 | 25 | 26 | 27 | 28 | 29 | 30 | 31 | 32
A549 viability | 2.3% | -1.5%[1.84 µM] | x | -17.2% | -1.0% | -8.3% | -6.5% | 2.3% | -8.2% | -5.3% | -0.6%
IL-2 act | -1.2 | 2.3 | x | -3.0 | 0.2 | -2.0 | -1.0 | -0.5 | 4.6 | x | x
miR-21 reporter | x | -3.2% | x | 14.9% | x | x | x | 2.4% | 1.4% | x | 5.1%
Nrf2 block | x | 10.5% | x | 23.1µM* | 18.4µM* | 13µM* | 20.6µM* | -5.8% | x | 23.3% | x
ClpP mod | -1.3% | 22.4µM* | -1.5% | -2.9% | x | -2.2% | 3.0% | -29.5% | 14.1µM* | x | -3.4%
Nrf2 activator | -0.6% | -1.0% | x | 5.8% | 0.0% | 2.0% | 12.9% | 3.4% | -0.3% | x | 1.4%

(33) O=C(/C=C/c1ccc(O)cc1)c1ccc(NC2=C(N3CCCCC3)C(=O)c3ccccc3C2=O)cc1
(34) Cc1ccc(C)c(Cc2c(C)nc3c(C(=O)N4CCOCC4)cnn3c2C)c1
(35) CCOC(=O)N1CCN(C(=O)c2cnn3c(C)c(Cc4ccc(C)cc4)c(C)nc23)CC1
(36) Cc1ccccc1Cc1c(C)nc2nc(SCC(=O)NCc3ccco3)nn2c1C
(37) Cc1ccccc1Cc1c(C)nc2c(C(=O)NCc3ccco3)cnn2c1C
(38) CCc1ccc(-n2nc(C)c3c(C)cc(=O)n(CC(=O)Nc4ccccc4C(=O)OC)c32)cc1
(39) CCCC(=O)NCCCCNC(=O)CCC
(40) CC(=O)N(O)CCCCCNC(=O)CCC(=O)N(O)CCCCCNC(=O)CCC(=O)N(O)CCCCCN

Assay by compound | 33 | 34 | 35 | 36 | 37 | 38 | 39 | 40
A549 viability | u | -0.6% | -6.6% | -13.3% | -25.3% | -15.6% | -3.4% | -0.7%
IL-2 act | 0.1 | 1.4 | 0.3 | -0.3 | -2.9 | x | 0.8 | -0.2
miR-21 reporter | 16.4% | -1.6% | -7.3% | 6.6% | -0.1% | 2.9% | 0.1% | 19.4%
Nrf2 block | 14.6µM* | -4.6% | u | u | u | 1.0% | -12.3% | 10.3µM*
ClpP mod | 6.7% | 28.2µM* | u | -0.1% | 31.6µM* | -1.5% | -0.2% | -3.1%
Nrf2 activator | 6.4% | 0.0% | 3.3% | -0.5% | 9.8% | -0.3% | 1.9% | -1.0%

(41) COc1cccc(Nc2nnc(SCC3CCCCO3)s2)c1 (stereo not drawn)
(42) Cc1cccc(Nc2nnc(SCC3CCCCO3)s2)c1C (stereo not drawn)
(43) Oc1ccccc1-c1cc(C(F)(F)C(F)F)nc(-c2ccccc2)n1
(44) O=[N+]([O-])c1ccc(O)c(-c2cc(C(F)(F)F)nc(-c3ccccc3)n2)c1

Assay by compound | 41 | 42 | 43 | 44
A549 viability | -4.5% | 17.6% | -17.2% | 8.2µM*
IL-2 act | -0.1 | -0.1 | 1.5 | -1.1
miR-21 reporter | -40.0% | -43.8% | -4.4% | u
Nrf2 block | -2.8% | 10.8% | u | u
ClpP mod | -0.6% | 10µM* | -0.2% | 1.2%
Nrf2 activator | 3.7% | 2.8% | 0.5% | -1.2%

Screening results as filed in PubChem.
